Assay results from article PMC8657792, “Interaction Profiles of Central Nervous System Active Drugs at Human Organic Cation Transporters 1–3 and Human Plasma Membrane Monoamine Transporter” (International Journal of Molecular Sciences, 2021).

What was measured:
[1] = biological target: T1, hOCT3 (Homo sapiens, UniProt O75751); details: Table S1; supplementary reference list; read-out: IC50 literature hOCT3; cited from earlier work
T1 construct: expressed in transfected cells
T1 sequence (O75751 1-556): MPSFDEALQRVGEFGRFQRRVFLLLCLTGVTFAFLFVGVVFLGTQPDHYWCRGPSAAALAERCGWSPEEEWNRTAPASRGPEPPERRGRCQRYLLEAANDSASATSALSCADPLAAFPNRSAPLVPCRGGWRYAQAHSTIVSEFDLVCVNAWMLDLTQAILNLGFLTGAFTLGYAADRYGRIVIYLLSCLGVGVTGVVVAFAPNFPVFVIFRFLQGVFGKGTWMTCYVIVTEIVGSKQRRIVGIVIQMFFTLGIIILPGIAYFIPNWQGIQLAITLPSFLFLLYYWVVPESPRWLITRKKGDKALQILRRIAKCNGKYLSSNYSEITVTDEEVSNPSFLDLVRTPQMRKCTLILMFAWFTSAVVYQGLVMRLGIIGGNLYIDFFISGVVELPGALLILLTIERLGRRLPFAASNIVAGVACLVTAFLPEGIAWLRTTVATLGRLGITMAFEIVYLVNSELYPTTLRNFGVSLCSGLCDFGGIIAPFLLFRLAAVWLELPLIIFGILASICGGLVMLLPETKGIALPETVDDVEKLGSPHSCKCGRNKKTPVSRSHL

[2] = biological target: T1, hOCT3; test: [3H]MPP+ uptake inhibition assay, HEK293 cells stably expressing hOCT3; type: cell-based; details: 0.05 μM [3H]MPP+, 10 min pre-incubation, 10 min uptake, brackets in Table S1 = 95%-CI, n.s. = non-significant

SMILES	IC50 [1]	IC50 hOCT3 (inhibitory potency, [3H]MPP+ uptake) [2]
CN(C)CCCC1(c2ccc(F)cc2)OCc2cc(C#N)ccc21 (stereo not drawn) [Citalopram]	188 µM	–
CN(C)CCC[C@]1(c2ccc(F)cc2)OCc2cc(C#N)ccc21 [R-Citalopram, R-citalopram]	–	n.s.
CN(C)CCC[C@@]1(c2ccc(F)cc2)OCc2cc(C#N)ccc21 [S-Citalopram, S-citalopram]	–	n.s.
